Experimental data reported in ChEMBL document CHEMBL2069242, “Structure and activity relationship in the (S)-N-chroman-3-ylcarboxamide series of voltage-gated sodium channel blockers” (Bioorg Med Chem Lett, 2012).

Amino acid sequences for entries named in this document (tags omitted). A change or cut given only in a name is not applied to a line headed by its entry.
UniProt Q12809: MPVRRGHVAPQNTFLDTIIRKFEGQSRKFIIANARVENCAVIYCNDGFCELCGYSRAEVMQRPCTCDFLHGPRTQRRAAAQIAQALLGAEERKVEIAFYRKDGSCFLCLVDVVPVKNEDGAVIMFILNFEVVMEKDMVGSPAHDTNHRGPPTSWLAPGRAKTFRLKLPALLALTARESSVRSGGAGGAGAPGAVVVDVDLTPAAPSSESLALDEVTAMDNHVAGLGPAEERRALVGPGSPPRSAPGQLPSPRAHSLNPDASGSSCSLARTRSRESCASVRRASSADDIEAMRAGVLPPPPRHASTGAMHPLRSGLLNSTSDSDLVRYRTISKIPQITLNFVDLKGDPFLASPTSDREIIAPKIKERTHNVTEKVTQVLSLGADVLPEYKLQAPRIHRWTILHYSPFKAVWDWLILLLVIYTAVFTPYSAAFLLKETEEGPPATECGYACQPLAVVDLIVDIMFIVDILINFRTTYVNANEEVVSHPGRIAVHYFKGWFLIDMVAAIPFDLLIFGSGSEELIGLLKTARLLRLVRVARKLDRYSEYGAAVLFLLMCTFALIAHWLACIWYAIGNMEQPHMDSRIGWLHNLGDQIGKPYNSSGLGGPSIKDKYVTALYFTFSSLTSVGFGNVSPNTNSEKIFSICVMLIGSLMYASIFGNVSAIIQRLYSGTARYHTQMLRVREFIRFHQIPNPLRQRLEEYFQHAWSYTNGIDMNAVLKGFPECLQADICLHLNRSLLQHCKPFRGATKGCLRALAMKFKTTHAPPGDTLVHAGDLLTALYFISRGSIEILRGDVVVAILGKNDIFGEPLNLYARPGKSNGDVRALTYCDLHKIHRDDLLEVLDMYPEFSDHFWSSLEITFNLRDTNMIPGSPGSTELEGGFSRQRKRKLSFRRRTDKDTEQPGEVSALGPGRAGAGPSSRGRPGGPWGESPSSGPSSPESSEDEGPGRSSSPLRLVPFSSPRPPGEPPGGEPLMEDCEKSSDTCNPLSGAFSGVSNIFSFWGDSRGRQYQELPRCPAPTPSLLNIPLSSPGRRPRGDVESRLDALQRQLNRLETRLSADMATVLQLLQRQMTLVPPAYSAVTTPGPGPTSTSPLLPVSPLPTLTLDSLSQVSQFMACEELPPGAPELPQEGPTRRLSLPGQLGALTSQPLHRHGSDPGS

Molecular target: Voltage-gated inwardly rectifying potassium channel KCNH2 (Homo sapiens, UniProt Q12809)
Test: Inhibition of human ERG expressed in CHO cells by IonWorks HT assay
Assay type: cell-based

Work on `COc1ncc(-c2cccc3c2C[C@H](NC(=O)c2ccc(OCC(F)(F)F)nc2)CO3)cn1` yielded an IC50 of 7.94 µM.
